From PMC11100219, “Dual-function antimicrobial-antibiofilm peptide hybrid to tackle biofilm-forming Staphylococcus epidermidis” (Annals of Clinical Microbiology and Antimicrobials, 2024)
≈ marks a conversion by molar mass, not a printed value.

Legend:
Format in all cases: cell-based
[1] = tested on: human red blood cells (hRBCs); assay: Hemolysis activity (hemoglobin release); details: peptide concentration causing 10% hemolysis of hRBCs; 2% hRBCs in 10 mM PBS, 1 h, 37°C, OD405
Description: The effect of peptides on human red blood cells (hRBCs) was assessed by observing the release of hemoglobin upon treated with peptide. Briefly, the hRBCs were obtained from healthy volunteers and subsequently diluted in 10 mM PBS to a concentration of 2% hRBCs. An equal volume of 2% hRBCs and peptide at concentration of 0.98–250 µg/mL in 10 mM PBS mixtures were incubated for 1 h at 37°C. Following incubation, the suspension was centrifuged, then supernatants were collected and transferred to 96-well microplates for measurement of absorbance at OD of 405 nm (OD405). This study was performed in accordance with the Thammasat University Ethics Committee (COA No. 066/2562). Written informed consent was obtained from all volunteers.

[2] = tested on: Escherichia coli ATCC 25922; assay: Broth microdilution MIC / MBC; details: MHB, 24 h, 37°C, 0.98-250 µg/mL, visible inspection
Description: (§1) The minimal inhibitory concentrations (MICs) of peptide derivatives versus planktonic bacteria were assessed using a modification of the broth microdilution assay previously described in the National Committee for Clinical Laboratory Standards (NCCLS). In brief, bacteria at mid-logarithmic growth were collected by centrifugation at 2,500 × g for 5 min. Subsequently, the pellet was resuspended and adjusted in Mueller-Hinton Broth (MHB; BD Bacto™, USA) to an OD620 of 0.05. Fifty µL of bacterial suspensions was transferred to 96-well microplates. Later, 50 µL of peptide derivatives at 0.98–250 µg/mL in 10 mM PBS, was added to wells and incubated for 24 h at 37°C with continuous shaking at 220 rpm. […] The experiments were done in three technical replicates and repeated independently.
(§2) To determine minimal bactericidal concentrations (MBCs) of the peptides, 50 µL of supernatant from non-turbid wells was plated on TSA, and the number of colony-forming units (CFUs) was observed after 24 h of incubation at 37°C. MBC was defined as the minimum concentration of peptide at which no bacterial colony was observed on the plate.

[3] = tested on: Staphylococcus aureus ATCC 25923; assay: Broth microdilution MIC / MBC; details: 24 h, 37°C
Description: as §1, §2

`CC[C@H](C)[C@H](NC(=O)CN)C(=O)NCC(=O)N[C@@H](C)C(=O)N[C@H](C(=O)N[C@@H](CC(C)C)C(=O)N[C@@H](CCCCN)C(=O)N[C@H](C(=O)N[C@@H](CC(C)C)C(=O)N[C@H](C(=O)N[C@H](C(=O)NCC(=O)N[C@@H](CC(C)C)C(=O)N1CCC[C@H]1C(=O)N[C@@H](C)C(=O)N[C@@H](CC(C)C)C(=O)N[C@H](C(=O)N[C@@H](CO)C(=O)N[C@@H](Cc1c[nH]c2ccccc12)C(=O)N[C@H](C(=O)N[C@@H](CCCCN)C(=O)N[C@@H](CCCNC(=N)N)C(=O)N[C@@H](CCCCN)C(=O)N[C@@H](CCCNC(=N)N)C(=O)N[C@@H](CCC(N)=O)C(=O)N[C@@H](CCC(N)=O)C(N)=O)[C@@H](C)CC)[C@@H](C)CC)[C@@H](C)O)[C@@H](C)O)C(C)C)C(C)C` [Melittin, melittin, reference compound] was tested, and the “MHC, minimum hemolytic concentration” value [1] was <0.98 µg/mL, the MIC [2] was 31.2 µg/mL (≈ 11 µM) and the MIC ([3]; broth microdilution, MHB, 0.98-250 µg/mL, visible inspection) was 3.91 µg/mL (≈ 1.37 µM). The MBC ([3]; plating of non-turbid wells on TSA) was 3.91 µg/mL (≈ 1.37 µM).
